## Binding of CDR-mutated scFvs to a peptide of the spike HR2 region

Source: Li et al. 2023 (doi:10.1038/s41467-023-39022-2), MIT Lincoln Laboratory and A-Alpha Bio; data file from the FLAb repository.

Target peptide (SARS-CoV-2 spike, HR2 region): PDVDLGDISGINAS

Each scFv is VH, three GGGGS repeats, VL, as in the parent Ab-14, and differs from it in the CDRs of the light chain only.
VH: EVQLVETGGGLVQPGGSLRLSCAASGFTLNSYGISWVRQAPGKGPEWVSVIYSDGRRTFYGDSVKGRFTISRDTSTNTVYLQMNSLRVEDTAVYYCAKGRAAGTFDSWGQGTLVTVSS
VL: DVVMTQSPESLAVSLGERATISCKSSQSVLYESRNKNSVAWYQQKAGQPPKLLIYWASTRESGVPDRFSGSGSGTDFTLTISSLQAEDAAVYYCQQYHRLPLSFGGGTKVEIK

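This is the validation round: designs drawn from the data on random variants, tested in the same kind of assay. Their group label is 14L_En_Gen (En: ensemble of fine-tuned language models; Gen: genetic algorithm). Affinity was read by AlphaSeq, a pooled yeast mating assay with surface-displayed partners. After mating in shaken culture at 30 °C for 16 h, diploids were selected and their barcode pairs sequenced. Read counts were normalised to the haploid input and turned into Kd by a linear fit to BCL2-family pairs of known affinity, for each replicate. Mating was done six times.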

The parent's light chain CDRs are KSSQSVLYESRNKNSVA, WASTRES, QQYHRLPLS; each variant's own CDRs replace them letter for letter. Numbers give log10(Kd / nM), so 0 is 1 nM and 3 is 1 µM. Smaller is tighter. Replicates are averaged; those with no signal do not enter the mean. "nd" means that the variant was in the library but no mating with the target was seen in that replicate; the authors take this as a sign of poor binding, and no number exists. Of ten entries with the parent sequence, four were seen in most replicates (averages 0.34 to 2.37), three in one and three in none, so single entries are noisy. In the paper, a design with two or fewer of six values counts as a poor binder. Values of this round are not directly comparable with the first-round values of the same sequences. Three control strains display no target. For all light chain designs, 4% of the pairings with them gave a signal, with a median of 2.64 and one signal in twenty below 1.59, so weak values seen in few replicates may be background. For each scFv, signals with the empty controls are counted beside the result, with their mean in brackets.

CDR-L1	CDR-L2	CDR-L3	log10 Kd (nM) by replicate	mean log10 Kd (nM)	signal with controls
KISQMARVGSTHSNSIA	EEATRSK	QQYHRLPLA	nd nd nd nd nd nd	nd	0 of 18
TLYGLSVSMSKNKNSVA	EMTTREA	QQYDRLPLI	nd 1.96 1.45 2.04 1.88 1.70	1.80	0 of 18
MLSQMTGLGMKVSNSVA	QASMRFN	QQYHRLPLI	1.74 2.25 nd 2.07 3.18 1.69	2.19	0 of 18
HITMGMYVMGRHHSSIA	QAEERAK	QQYDRLPLI	1.66 1.86 1.14 1.15 1.59 1.13	1.42	0 of 18
TISQVMNTLTRHGNNVA	DLQEREE	QQYFRLPLS	nd nd nd nd nd nd	nd	0 of 18
KIGQLFMLEQYHKNNVA	GTETRVR	QHYHRLPLS	2.83 2.38 nd 3.69 nd 2.24	2.78	1 of 18 (2.39)
QLYEMLYELSGKSHSVA	DNSTRGE	QQYFRLPLD	nd nd 1.45 1.82 2.33 nd	1.87	0 of 18
MMSQVTGQGYRHRNNVA	QTSTREP	QQYDRLPLI	0.68 0.89 0.76 0.77 0.76 1.03	0.81	1 of 18 (2.76)
KISQMTRVGSTHHNSIA	EEATRAK	QQYHRLPLF	2.29 nd 2.80 2.18 1.96 2.15	2.28	0 of 18
TISGVMMQLSHSKNNVA	EVSMRLD	QQYFRLPLE	2.64 0.94 2.01 1.58 3.80 1.72	2.12	0 of 18
MMSQVTGLGQRQRNNVA	QTSEREP	QQYDRLPLI	nd nd 1.86 nd nd 3.08	2.47	0 of 18
KISMLINMTFEQSNNVA	EMVTREK	QQYNRLPLS	0.52 0.89 0.41 0.61 0.98 1.13	0.76	0 of 18
TISSVMQTQSHSKNNVA	EVSTRLE	QQYFRLPLE	1.20 1.27 nd 2.69 1.46 nd	1.66	1 of 18 (2.32)
HMSALTMLGMRQRNSVA	QMTTREN	QQYDRLPLV	1.52 1.23 1.14 0.76 1.02 1.05	1.12	0 of 18
QLGMTLKELSKVTNNVA	EMTTRGN	QQYYRLPLS	1.47 0.50 0.32 0.34 0.54 0.31	0.58	0 of 18
HMSMLSLMGSRQRNSVA	QMTTREN	QQYDRLPLM	1.02 0.51 0.61 0.62 0.48 0.43	0.61	2 of 18 (2.36)
KVSEFMRGLTQVKDSIA	DNVTRNN	QQYDRLPLS	1.29 1.82 1.57 1.60 2.30 1.35	1.65	0 of 18
HMSMITLQGMRMRNSVA	QMTTREN	QQYDHLPLS	nd 1.65 2.25 2.12 2.40 nd	2.11	0 of 18
QLSSIMGHLSVEKNNVA	EMETREN	QQYDRLPLS	nd 3.40 nd 1.48 nd nd	2.44	1 of 18 (2.18)
TLYGLSVSMSKNVNNVA	EMTTRED	QQYDRLPLV	0.89 1.62 0.58 1.13 0.92 1.44	1.10	0 of 18
TISQMTSWMSNKKANVA	EVSTREP	QQYDRLPLS	0.56 0.62 0.29 0.20 0.51 0.77	0.49	0 of 18
TISELYNQALGIRNNVA	NNQTRED	QQYDRLPLS	nd nd nd nd 2.10 nd	2.10	3 of 18 (2.94)
KVSEFMRGLMGKKDSIA	DNVTRSN	QQYDRLPLS	2.72 2.68 4.78 1.97 nd 3.03	3.04	0 of 18
MISQLYNFGTFAINSVA	QASLRCN	QQYDRLPLT	nd 1.38 2.22 1.88 nd 2.19	1.92	2 of 18 (2.21)
TLYGLSMSMSKNKNNVA	EMTTREE	QQYDRLPLV	0.68 0.31 0.67 0.13 0.30 0.56	0.44	0 of 18
KLVNFMNRGTHHTSNIA	DAQNRLD	QQYARLPLA	0.24 -0.02 0.04 -0.02 0.10 0.36	0.12	0 of 18
MVTQLAMTGMNSKRSVA	NAETREN	QQYHRLPLI	0.50 0.28 0.26 0.30 0.07 0.62	0.34	1 of 18 (3.06)
KLTMITGLEKVTKNQVA	EMETREK	QQYNRLPLS	0.56 0.01 0.32 -0.08 0.29 0.31	0.23	0 of 18
MVSQLMLWGMHVKNSIA	EAVTRIN	QQYDRLPLI	nd nd nd nd nd nd	nd	0 of 18
MISQMYNMGQFAINSVA	QASIRND	QQYDRLPLA	1.82 1.23 0.87 1.22 1.14 1.29	1.26	2 of 18 (3.05)
KITATMRFEQKIKNNIA	EVTTRSK	QQYYRLPLS	1.11 0.72 0.78 1.20 1.42 1.04	1.04	0 of 18
MMSQVHGLGQRHRNNVA	QTSTRED	QQYDRLPLI	1.25 1.31 1.35 1.09 1.06 1.25	1.22	0 of 18
NIYQAMHTLSQMKDNVA	DVNERFN	QQYFRLPLS	0.11 0.11 0.26 -0.03 0.03 -0.10	0.07	0 of 18
IVSQLMLWGMHHKNSIA	EAQTKLN	QQYDRLPLF	1.68 1.11 1.64 0.85 1.70 1.77	1.46	0 of 18
MLGDVAHGSSRKENSVA	DNDTRES	QQYDRLPLS	nd nd 1.29 1.20 nd nd	1.25	0 of 18

Repeated from above, the 5 best binders with a signal in all replicates:

CDR-L1	CDR-L2	CDR-L3	log10 Kd (nM) by replicate	mean log10 Kd (nM)	signal with controls
NIYQAMHTLSQMKDNVA	DVNERFN	QQYFRLPLS	0.11 0.11 0.26 -0.03 0.03 -0.10	0.07	0 of 18
KLVNFMNRGTHHTSNIA	DAQNRLD	QQYARLPLA	0.24 -0.02 0.04 -0.02 0.10 0.36	0.12	0 of 18
KLTMITGLEKVTKNQVA	EMETREK	QQYNRLPLS	0.56 0.01 0.32 -0.08 0.29 0.31	0.23	0 of 18
MVTQLAMTGMNSKRSVA	NAETREN	QQYHRLPLI	0.50 0.28 0.26 0.30 0.07 0.62	0.34	1 of 18 (3.06)
TLYGLSMSMSKNKNNVA	EMTTREE	QQYDRLPLV	0.68 0.31 0.67 0.13 0.30 0.56	0.44	0 of 18